The list shows a part of the results, in another mix than the full data. Active and inactive are the calls of the source. No stated cut-off is given here; in the data, active means inhibition above about 50% (passing the limit was not always enough); inconclusive means no clear call, values can overlap the other calls.
These molecules were tested against SUMO-conjugating enzyme UBC9 (Homo sapiens) (UniProt P63279) (assay: inhibitors of in vitro SUMOylation cascade, primary screen, biochemical, HTRF, uHTS (AID 2006)). Settings: HTRF SUMOylation assay, SAE1/SAE2 + UBC9, in vitro; at 35 µM; active compounds read high.

Amino acid sequences for entries named in this document (tags omitted).
UniProt P63279, whole entry: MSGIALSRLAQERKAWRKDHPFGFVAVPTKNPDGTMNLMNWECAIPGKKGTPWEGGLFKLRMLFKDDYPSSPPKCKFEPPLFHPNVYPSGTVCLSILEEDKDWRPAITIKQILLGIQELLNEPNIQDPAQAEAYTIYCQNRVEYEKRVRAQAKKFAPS

SMILES	inhibition
CC(C)(C)OC(=O)N1CCC(N(C(=O)c2ccccc2)c2ccc(Cl)cc2)CC1	inactive: 4.9%
N#Cc1ccc(C(=O)NCC2(N3CCCCC3)CCCCC2)cc1	inactive: 7%
CCCN1CCC(Nc2cc(OC)cc(OC)c2)CC1	inactive: 22.1%
c1ccc(CN2CCC(Nc3ccccc3)CC2)cc1	inactive: 12.3%
CN(C)C1(CNC(=O)c2cccc(C#N)c2)CCCCC1	inactive: 11.3%
COc1ccc(C(=O)NCC2(N3CCOCC3)CCCCC2)cc1OC	inactive: 5.3%
O=C(OC1CN2CCC1CC2)C1c2ccccc2C=Cc2ccccc21 (centres undefined)	inactive: 7%
N/C(=N\O)c1c(N)no[n+]1[O-]	inactive: 1.4%
CCOC(=O)N1CCC(Nc2ccc(C)cc2)CC1	inactive: -13.9%
CCCOc1ccc(C(=O)NCC2(N(C)C)CCCCC2)cc1	inactive: -3.4%
O=C(O)C1(Nc2ccccc2)CCN(Cc2ccccc2)CC1	inactive: 3.9%
CC(C)(C)OC(=O)N1CCC(Nc2ccccc2)CC1	inactive: 9.4%
CN1CCC(Nc2ccc(F)c(Cl)c2)CC1	inactive: -3.8%
CCOc1ncccc1C(=O)NCC1(N2CCOCC2)CCCCC1	inactive: 9.8%
CCCOc1ccc(C)cc1CN(CCCl)CCCl	inactive: 11.4%
CN1CCC(Nc2ccc(Cl)cc2)CC1	inactive: 2.7%
CCC(CO)(C(=O)OC1CN2CCC1CC2)c1ccccc1 (centres undefined)	inactive: 9.3%
COc1cc(OC)cc(C(=O)NCC2(N3CCOCC3)CCCCC2)c1	inactive: 11.4%
COc1cccc(C(=O)N(c2cc(C)cc(C)c2)C2CCN(C(=O)OC(C)(C)C)CC2)c1	inactive: -4%
Fc1ccccc1NC1CCN(Cc2ccccc2)CC1	inactive: 15.3%
COc1cc(OC)cc(C(=O)NCC2(N3CCCCC3)CCCCC2)c1	inactive: 12.8%
CN(C)c1ccc(C(=O)NCC2(N3CCCCC3)CCCCC2)cc1	inactive: 6.6%
CCN1CCC(Nc2cccc(F)c2)CC1	inactive: 0.3%
COc1ccc(NC2CCN(CCc3ccccc3)CC2)c(OC)c1	inactive: 26%
CCOC(=O)N1CCC(Nc2ccc(F)cc2)CC1	inactive: 3.5%
O=C(NCC1(N2CCCCC2)CCCCC1)c1ccc(F)cc1	inactive: 2.3%
CCOc1ccc(C)cc1CN(CCCl)CCCl	inactive: 9.2%

SMILES	inhibition
Cc1ccc(OCC(C)C)c(CN(CCCl)CCCl)c1	inactive: -11%
COc1cc(C(=O)NCC2(N(C)C)CCCCC2)ccc1OC(F)F	inactive: 8%
CCOC(=O)N1CCC(Nc2cccc(C)c2)CC1	inactive: 11.5%
CSc1ccccc1C(=O)NCC1(N2CCCCC2)CCCCC1	inactive: 11.7%
O=C(NCC1(N2CCCCC2)CCCCC1)c1ccc(=O)[nH]c1	inactive: 5%
COc1ccc(C(=O)NCC2(N3CCCCC3)CCCCC2)c(OC)c1OC	inactive: -2.4%
CC(C)(C)OC(=O)N1CCC(N(C(=O)c2ccccc2)c2ccc(F)cc2)CC1	inactive: -8.3%
COc1ccc(C(=O)NCC2(N3CCCCC3)CCCCC2)cc1	inactive: 11.2%
CCOC(=O)N1CCC(Nc2ccc(OC)cc2)CC1	inactive: 3%
O=C(OC1CN2CCC1CC2)C1c2ccccc2Oc2ccccc21 (centres undefined)	inactive: 16%
N#CC1(Nc2ccccc2)CCN(Cc2ccccc2)CC1	inactive: -5.4%
O=C(NCC1(N2CCOCC2)CCCCC1)c1cc2ccccc2o1	inactive: 16.7%
Cc1cc(C)cc(N(C(=O)c2ccccc2)C2CCN(C(=O)OC(C)(C)C)CC2)c1	inactive: 3.5%
COc1cc(OC)c(C(=O)NCC2(N(C)C)CCCCC2)cc1OC	inactive: 6.8%
CN(C)c1cccc(C(=O)NCC2(N3CCCCC3)CCCCC2)c1	inactive: 13.9%
COc1ccc(CN(CCCl)CCCl)cc1Cl	inactive: -5.7%
CC(C)c1ccc(NC2CCN(C(=O)OC(C)(C)C)CC2)cc1	inactive: 3.5%
CCCOc1ccc(C(=O)NCC2(N(C)C)CCCCC2)cc1OC	inactive: 0.1%
O=C(NCC1(N2CCCCC2)CCCCC1)c1cccc([N+](=O)[O-])c1	inactive: 6.2%
N#CC1(Nc2ccccc2)CCN(CCc2ccccc2)CC1	inactive: 4.5%
CCN1CCC(Nc2ccc(Cl)cc2)CC1	inactive: 4.2%
O=C(NCC1(N2CCCCC2)CCCCC1)c1ccc(OC(F)F)cc1	inactive: -12.9%
CN1CCN(CCOC(=O)C(O)(c2ccccc2)c2ccccc2)CC1	inactive: 1%
COc1ccc(NC2CCN(C(=O)OC(C)(C)C)CC2)cc1	inactive: -16.9%
COc1cc(C(=O)NCC2(N3CCCCC3)CCCCC2)ccc1OC(F)F	inactive: 3.1%
O=C(NCC1(N2CCOCC2)CCCCC1)c1cc(=O)[nH]c2ccccc12	inactive: -1.2%
O=C(NCC1(N2CCCCC2)CCCCC1)c1cccc(C(F)(F)F)c1	inactive: 4.2%

Source: PubChem BioAssay AID2006 (Sanford-Burnham Center for Chemical Genomics, 2009)
